Results on 1 molecule are retold here after paper PMC6968506, “Synthesis, in vitro screening and molecular docking of isoquinolinium-5-carbaldoximes as acetylcholinesterase and butyrylcholinesterase reactivators” (2020).

Assay [1] concerns the target Sarin-hAChE (human erythrocyte AChE) (Homo sapiens, UniProt P22303). In words: Reactivation of sarin-inhibited hAChE. The settings on record: 10 min, 37 °C.
In assay [2] the target is VX-hAChE (human erythrocyte AChE) (Homo sapiens, UniProt P22303). Nature of the assay: Reactivation of VX-inhibited hAChE. The settings on record: 10 min, 37 °C.

Consider `NC(=O)c1cc[n+](CCC[n+]2ccc3c(C=NO)cccc3c2)cc1.[Br-].[Br-]`, for which the figures for the “Sarin-hAChE % reactivation ± SD” value in assay [1] (oxime 10 µM) and in assay [1] (oxime 100 µM) were 1.23 ± 0.35% and 2.46 ± 0.2%, respectively. The “VX-hAChE % reactivation ± SD” value in assay [2] (oxime 10 µM) is 0.76 ± 0.16%; in assay [2] (oxime 100 µM), 2.83 ± 0.16%.
